The record followed here is ChEMBL document CHEMBL3875191, “Enhanced potency of bivalent small molecule gp41 inhibitors” (Bioorg Med Chem, 2017).

The test deals with Human immunodeficiency virus 1. The test can be described thus: Ratio of Kd for wild type HIV-1 Fe2(env2.0)3 peptide model of gp41 hydrophobic pocket to Ka for wild type HIV-1 Fe2(env2.0)3 peptide model of gp41 hydrophobic pocket.
For the molecule `O=C(CCc1c[nH]c2ccccc12)NCCCCCC(=O)Nc1ccc(C(=O)N[C@@H](Cc2c[nH]c3ccccc23)C(=O)O)cc1OCc1ccc(Cl)cc1`, the Ratio was 1.4 ×10⁻⁵ /M.
For the molecule `O=C(CCc1c[nH]c2ccccc12)NCCCCCC(=O)Nc1ccc(C(=O)N[C@@H](Cc2c[nH]c3ccccc23)C(=O)O)cc1OCCc1c[nH]c2ccccc12`, the Ratio stood at 1.4 ×10⁻⁵ /M.
For `Nc1ccc(C(=O)N[C@@H](Cc2c[nH]c3ccccc23)C(=O)O)cc1OCc1ccc(Cl)cc1`, the Ratio was determined as 1.2 ×10⁻⁵ /M.
Take `O=C(CCC(=O)Nc1ccc(C(=O)N[C@@H](Cc2c[nH]c3ccccc23)C(=O)O)cc1OCCc1c[nH]c2ccccc12)NCCOCCOCCOCCNC(=O)CCC(=O)Nc1ccc(C(=O)N[C@@H](Cc2c[nH]c3ccccc23)C(=O)O)cc1OCCc1c[nH]c2ccccc12`: the Ratio came to 1.6 ×10⁻⁵ /M.
`Nc1ccc(C(=O)N[C@@H](Cc2c[nH]c3ccccc23)C(=O)O)cc1OCCc1c[nH]c2ccccc12`: the Ratio was determined as 1.6 ×10⁻⁵ /M.
As for `O=C(CCC(=O)Nc1ccc(C(=O)N[C@@H](Cc2c[nH]c3ccccc23)C(=O)O)cc1OCc1ccc(Cl)cc1)NCCOCCOCCOCCNC(=O)CCC(=O)Nc1ccc(C(=O)N[C@@H](Cc2c[nH]c3ccccc23)C(=O)O)cc1OCc1ccc(Cl)cc1`, the Ratio came out at 2.1 ×10⁻⁵ /M.
